# This is a selection; strong and weak results do not stand in their true shares. Active and inactive are the calls of the source.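 The calls were made as follows: active = percent inhibition above the cutoff of mean plus 3 SD of all tested compounds, set per screening campaign (cut at about 20% in these data); inactive = the rest.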
# Chains of the proteins cited; added tags and fusions are not shown. Lines headed by an entry give the natural chain unless they say otherwise; changes in a name come on top.
# UniProt Q9Y5X4: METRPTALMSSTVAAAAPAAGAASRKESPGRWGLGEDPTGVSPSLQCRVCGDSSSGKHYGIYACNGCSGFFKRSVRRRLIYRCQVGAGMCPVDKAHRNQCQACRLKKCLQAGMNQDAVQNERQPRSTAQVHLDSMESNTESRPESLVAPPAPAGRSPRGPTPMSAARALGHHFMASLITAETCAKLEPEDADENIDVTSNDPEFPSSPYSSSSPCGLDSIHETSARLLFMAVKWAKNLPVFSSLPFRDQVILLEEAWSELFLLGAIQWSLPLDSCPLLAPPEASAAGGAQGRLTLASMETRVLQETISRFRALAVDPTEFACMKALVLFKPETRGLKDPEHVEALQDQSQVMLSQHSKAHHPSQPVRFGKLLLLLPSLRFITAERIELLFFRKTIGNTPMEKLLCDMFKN
# Molecular target: Photoreceptor-specific nuclear receptor (Homo sapiens) (UniProt Q9Y5X4)
# Test: inhibitors of NR2E3-RetCOR corepressor binding, primary screen, NR2E3 agonist project, biochemical, TR-FRET, GST-NR2E3, biotin-RetCOR (AID 2300);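 also: 0% = DMSO wells and 100% = biotin wells as full block of FRET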
# Settings: 1536-well, at 4.78 µM, hits give high values
# How it was run: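 Material: NR2E3–RetCOR corepressor complex | Quantity: 1.35 nM GST-tagged NR2E3 final | Schedule: 5 h at 4 °C | Replication: Singlicate compound wells | Reagent: RetCOR corepressor, biotinylated, 7 nM | Controls: Biotin wells as high control, 0.6% DMSO wells as low control | Signal: TR-FRET, Eu(K)-anti-GST donor, streptavidin-D2 acceptor, ex 340, em 617/671 nm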
row,Compound,inhibition of corepressor binding
1,CCNC(=S)/N=C(\N)N[N+](=O)[O-],inactive: 0.07%
2,CCC(=O)N1C2C3N(C(=O)CC)C1C1N(C(=O)CC)C(C(N1C(=O)CC)N3C(=O)CC)N2C(=O)CC,inactive: -1.67%
3,O=C(OC1CN2CCC1CC2)c1ccccc1 (configuration not stated),inactive: 0.32%
4,CC(=O)NC(SC(=S)N(CC(C)C)CC(C)C)C(Cl)(Cl)Cl (configuration not stated),inactive: 0.27%
5,Cc1ccc(OP(=O)(Nc2ccccn2)Oc2ccc(C)cc2)cc1,inactive: 3.39%
6,COC(=O)c1cc2c(s1)N=C(c1ccccc1)N(C)P2(=O)N1CCOCC1 (configuration not stated),inactive: 4.04%
7,CN(C)C(=O)Oc1noc2ccccc12,inactive: -4.61%
8,Cc1ccccc1OP(=O)(Nc1ccccn1)Oc1ccccc1C,inactive: 3.26%
9,O=P(Nc1nccs1)(Oc1ccccc1)Oc1ccccc1,inactive: -3.57%
10,O=P(Nc1nccs1)(c1ccccc1)c1nc2ccccc2s1 (configuration not stated),inactive: -2.82%
11,CCOP1(=S)c2c(C)nn(CCC#N)c2N=C(c2ccccc2F)N1C (configuration not stated),inactive: 1.63%
12,CS(=O)(=O)c1cc([N+](=O)[O-])c2no[n+]([O-])c2c1,inactive: -2.51%
13,O=C(O)COc1ccc([As](=O)(O)O)cc1[N+](=O)[O-],inactive: -1.32%
14,Nc1ccccc1[As](=O)(O)c1ccccc1,inactive: 2.13%
15,NC(=O)Nc1ccc([As](=O)(O)O)cc1,inactive: 1.19%
16,CCOP1(=S)c2c(C)nn(CCC#N)c2N=C(c2ccc(F)cc2)N1C (configuration not stated),inactive: 2.57%
17,CN(C(=O)Cc1ccccc1)[C@@H]1CC[C@]2(CCCO2)C[C@H]1N1CCCC1,inactive: 2.96%
18,N#CCCN(C(=O)COC(=O)C(O)(c1ccccc1)c1ccccc1)c1ccc(F)cc1,inactive: -6.81%
19,CN(C(=O)Cc1ccc(Cl)c(Cl)c1)[C@H]1CC[C@@]2(CCCO2)C[C@@H]1N1CCCC1,inactive: 1.94%
20,O=[N+]([O-])c1ccc2c(c1)nnn2O,inactive: 0.68%
21,CN(C)C(=O)c1cc([N+](=O)[O-])cc2c1-c1c(cc([N+](=O)[O-])cc1[N+](=O)[O-])C2=O,inactive: -9.85%

row,Compound,inhibition of corepressor binding
1,O=C(OC1CN2CCC1CC2)c1ccc(Cl)cc1 (configuration not stated),inactive: 0.45%
2,CS(=O)(=O)c1ccc(Cl)c(NC(=O)COC(=O)C(O)(c2ccccc2)c2ccccc2)c1,inactive: 1.42%
3,O=[As](O)(O)c1cccnc1,inactive: -1.74%
4,COc1cc(C(=O)NCC2(N3CCOCC3)CCCCC2)cc(Cl)c1OC(C)C,inactive: -2%
5,Cc1cccc(OCC(=O)OC2CN3CCC2CC3)c1 (configuration not stated),inactive: -0.25%
6,O=[As](O)(c1cccc(O)c1)c1cccc(O)c1,inactive: -0.68%
7,Cc1ccc(NCCc2c([N+](=O)[O-])cc([N+](=O)[O-])cc2[N+](=O)[O-])cc1,inactive: -0.57%
8,Nc1cccc2c([As](=O)(O)O)cccc12,inactive: 1.34%
9,CCCOP(=S)(Nc1nc(N)cc(=O)[nH]1)OCCC,inactive: 0.45%
10,CCOP(=O)(Nc1cccc2ccccc12)OCC,inactive: -0.72%
11,COc1cc(C2NCCC3(OCCO3)C2(C)C)cc(OC)c1OC (configuration not stated),inactive: 1.05%
12,CCOP(=O)(NC(=NC(C)c1ccccc1)NC(C)c1ccccc1)OCC (configuration not stated),inactive: 4.53%
13,CCC1=CC2Cc3nc4ccc(Cl)cc4c(N)c3C(C1)C2 (configuration not stated),inactive: -0.23%
14,O=P1(Nc2ccccn2)COc2ccccc2OC1,inactive: 0.05%
15,CCOP(=O)(Nc1ccc(C)cn1)OCC,inactive: 1.13%
16,CN(CCCl)Cc1cc(Cl)c(NC2=NCCN2)c(Cl)c1,inactive: -4.12%
17,CC(C)(C)C(=O)NC(Sc1ncccn1)C(Cl)(Cl)Cl (configuration not stated),inactive: 0.02%
18,Clc1n[nH]nc1-c1nn[nH][15n]1,inactive: 1.71%
19,COc1ccccc1CNC(=O)COC(=O)C(O)(c1ccccc1)c1ccccc1,inactive: -1.42%
20,CN(C(=O)Cc1ccc(Cl)c(Cl)c1)[C@@H]1CCCC[C@H]1N1CCCC1,inactive: -1.06%
21,CC(C)/C=N\N=C(\N)N[N+](=O)[O-],inactive: -0.3%

row,Compound,inhibition of corepressor binding
1,CC1(CBr)Cn2c(nc3ccccc3c2=O)S1 (configuration not stated),inactive: 0.53%
2,O=[As](O)(c1ccccc1Br)c1ccccc1Br,inactive: -2.8%
3,Cc1ccc(C(=O)OC2CN3CCC2CC3)cc1 (configuration not stated),inactive: -0.74%
4,CC1CCC(C(C)C)C(OP(=O)(Nc2ccccn2)c2ccccc2)C1 (configuration not stated),inactive: -0.34%
5,Cc1nn(-c2ccccc2)c2c1P(=O)(N1CCOCC1)N(C)C(c1ccccc1)=N2 (configuration not stated),inactive: 0.8%
6,CN(C)C1(CNC(=O)c2ccc(S(C)(=O)=O)cc2)CCCCC1,inactive: 0.62%
7,O=C(/C=C/c1ccccc1)OC1CN2CCC1CC2 (configuration not stated),inactive: 0.59%
8,O=P1(Nc2ncccn2)COc2ccccc2OC1,inactive: -0.03%
9,Nc1cccc([As](=O)(O)c2ccccc2)c1,inactive: 0.88%
10,Cc1ccc(OCC(=O)OC2CN3CCC2CC3)cc1 (configuration not stated),inactive: 2.45%
11,O=[As](O)(c1cccs1)c1cccs1,inactive: -0.57%
12,NS(=O)(=O)c1cccc(NC(=O)COC(=O)C(O)(c2ccccc2)c2ccccc2)c1,inactive: 2.69%
13,O=P1(Nc2ccc(Br)cn2)COc2ccccc2OC1,inactive: 7.02%
14,CCOC(=O)Nc1ccc([As](=O)(O)O)c(O)c1,inactive: -3.9%
15,Cc1cc(SC(NC(=O)c2ccccc2)C(Cl)(Cl)Cl)nc(C(C)C)n1 (configuration not stated),inactive: 1.49%
16,CCOC(=O)Nc1cccc([As](=O)(O)O)c1,inactive: -1.42%
17,Cc1cc(SC(NC=O)C(Cl)(Cl)Cl)ncn1 (configuration not stated),inactive: 2.21%
18,O=P(Nc1ccccn1)(c1cccc2ccccc12)c1cccc2ccccc12,inactive: 0.19%
19,COP1(=S)c2c(C)nn(CCC#N)c2N=C(c2ccc(F)cc2)N1C (configuration not stated),inactive: 0.97%
20,O=C(Nc1ccncc1[N+](=O)[O-])c1ccc([N+](=O)[O-])cc1[N+](=O)[O-],inactive: 0.37%
21,O=C(COc1ccccc1)OC1CN2CCC1CC2 (configuration not stated),inactive: -1.94%

row,Compound,inhibition of corepressor binding
1,O=C(OC1CN2CCC1CC2)c1cccc([N+](=O)[O-])c1 (configuration not stated),inactive: 5.57%
2,CCOC(=O)c1ccc(NC(=O)C(C)(CCl)SC)cc1 (configuration not stated),inactive: 2.23%
3,CCC(C)N(CC(C)C)C(=S)SC(NC(C)=O)C(Cl)(Cl)Cl (configuration not stated),inactive: -1.06%
4,Cc1c2c(nc3ccccc13)SC(C(Cl)Cl)C2 (configuration not stated),inactive: -1.13%
5,Cc1cc(=O)[nH]c(N[N+](=O)[O-])n1,inactive: 2.08%
6,O=C(OC1CN2CCC1CC2)C12CC3CC(CC(C3)C1)C2 (configuration not stated),inactive: -1.09%
7,COc1cc(I)ccc1[As](=O)(O)O,inactive: -3.75%
8,COc1ccc2nc(NP(=O)(c3ccccc3)c3ccccc3)sc2c1,inactive: -2.15%
9,COc1ccc(N/C(=N/P(=O)(N2CCOCC2)N2CCOCC2)N2CCOCC2)cc1,inactive: -0.93%
10,COc1cc(C(=O)NCC2(N3CCOCC3)CCCCC2)ccc1OCC(C)C,inactive: 2.57%
11,O=[As](O)(c1ccc(O)cc1)c1ccccc1O,inactive: 0.8%
12,C[As](=O)(O)c1cccc(C(=O)O)c1,inactive: 1.41%
13,Cc1ccc(OP(=O)(Nc2ccc([N+](=O)[O-])cn2)Oc2ccc(C)cc2)cc1,inactive: -3.41%
14,Cc1ccc2nc3c(c(C)c2c1)CC(C(Cl)Cl)S3 (configuration not stated),inactive: 2.22%
15,ClCCSc1nnc(-c2cccnc2)o1,inactive: 1.37%
16,CC(C)c1ccc(OP(=O)(Nc2ccccn2)Oc2ccccc2F)cc1 (configuration not stated),inactive: -0.2%
17,O=[N+]([O-])c1cc([N+](=O)[O-])c(-c2ccn[nH]2)s1,inactive: 0.17%
18,CC(C)NC(=O)NP(=O)(Oc1ccccc1)Oc1ccccc1,inactive: 1.1%
19,CCN(CC)C(=S)SC(NC=O)C(Cl)(Cl)Cl (configuration not stated),inactive: -4.32%

# From PubChem BioAssay AID2300 (The Scripps Research Institute Molecular Screening Center, 2010)
